Test results taken from PMC9438229.

Target: low-density lipoprotein receptor-related protein 1 (LRP1) (human (endogenous in iPSC-derived neurons)) (UniProt Q07954)

lysine-capped α-synuclein (from UniProt P37840 1-140) (natural protein)
uptake of lysine-capped α-Syn into WT iPSNs by flow cytometry, reduction against uncapped α-Syn: 50 % reduction
